Data reported in US4169096A, “Antibiotic compounds” (priority 1977, dated 1979).
Values after ≈ are worked out from the molar mass of the structure shown. Where a name gives a salt, the structure may show the parent alone. Read-outs that look alike come from different tables or passages of the source.

Key:
[1] = test system: Bacteroides fragilis A20926; assay: microbe, parasite or virus in culture
B. fragilis A20926 = assay: Localized infection with B. fragilis in mice; type: in vivo; settings: Bacteroides fragilis, once daily for 5 days, log-probit plot
[2] = A20926, 144 h, oral, read-out: po PD50
[3] = A20926, sc, 144 h, subcutaneous, read-out: sc PD50

SMILES | MIC [1] [µg/mL] | ED50 (B. fragilis A20926; [2]) [mg/kg] | ED50 (B. fragilis A20926; [3]) [mg/kg]
CCC[C@@H]1C[C@@H](C(=O)N[C@@H]([C@H]2O[C@H](SC)[C@H](O)[C@@H](O)[C@H]2O)[C@H](C)Cl)N(C)C1 [Clindamycin] | 0.05 (≈ 0.118 µM) | – | –
COC(=O)C1C(C)OC2(C)CC(=O)C3OC12OC(C(C)/C=C(C)/C=C/C(=O)C1=C(O)CNC1=O)C3C (stereo not drawn) [Bu-2313B (Na salt)] | – | ~220 | 60
Cc1ncc([N+](=O)[O-])n1CCO [Flagyl] | – | 50 | 35
COC(=O)C1C(C)OC2(C)CC(=O)C3OC12OC(C(C)/C=C(C)/C=C/C(=O)C1=C(O)CN(C)C1=O)C3C (stereo not drawn) [Bu-2313A] | 0.2 (≈ 0.386 µM) | – | –
